According to patent US11407781B2, “Equatorially modified polymer linked multimers of guanosine-3′, 5′-cyclic monophosphates” (GRAYBUG VISION, INC., priority 2016, dated 2022):

Assay: Determination of lipophilicity by RP-18 HPLC retention (log k′g)
Assay type: physicochemical
Text: Lipophilicity information is thus often only obtained by fragment analysis and corresponding calculations.
An established HPLC method, which is based on retention data on RP-18 reversed phase silica during gradient elution, was used for the determination of lipohilicity.
Instead of log P the method yields the descriptor log k′g, ranking analytes according to their lipophilicity on a logarithmic scale as well. Since charged molecules such as cyclic nucleotides have only hardly any retention on reversed phases, ion pair chromatography with the lipophilic triethylammonium cation is used.

Substance: 8-(2-Aminophenylthio)-β-phenyl-1,N^2-ethenoguanosine-3′,5′-cyclic monophosphorothioate, Rp-isomer [Compound 36]
- log k′g: 3.150
